Only a part is listed here, and it is no random draw. Calls of active or inactive are those of the source.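 The calls were made as follows: active = activity change below a set negative limit, meaning inhibition stronger than a set level (cut at about -70% in these data); inconclusive = activity change between two set negative limits; inactive = the rest.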
% is scaled to controls: 0 for no effect and ±100 for the full control effect.

Sequences of proteins named here, by UniProt entry; tags and fusion partners are left off.
UniProt P16473, whole entry, looked up: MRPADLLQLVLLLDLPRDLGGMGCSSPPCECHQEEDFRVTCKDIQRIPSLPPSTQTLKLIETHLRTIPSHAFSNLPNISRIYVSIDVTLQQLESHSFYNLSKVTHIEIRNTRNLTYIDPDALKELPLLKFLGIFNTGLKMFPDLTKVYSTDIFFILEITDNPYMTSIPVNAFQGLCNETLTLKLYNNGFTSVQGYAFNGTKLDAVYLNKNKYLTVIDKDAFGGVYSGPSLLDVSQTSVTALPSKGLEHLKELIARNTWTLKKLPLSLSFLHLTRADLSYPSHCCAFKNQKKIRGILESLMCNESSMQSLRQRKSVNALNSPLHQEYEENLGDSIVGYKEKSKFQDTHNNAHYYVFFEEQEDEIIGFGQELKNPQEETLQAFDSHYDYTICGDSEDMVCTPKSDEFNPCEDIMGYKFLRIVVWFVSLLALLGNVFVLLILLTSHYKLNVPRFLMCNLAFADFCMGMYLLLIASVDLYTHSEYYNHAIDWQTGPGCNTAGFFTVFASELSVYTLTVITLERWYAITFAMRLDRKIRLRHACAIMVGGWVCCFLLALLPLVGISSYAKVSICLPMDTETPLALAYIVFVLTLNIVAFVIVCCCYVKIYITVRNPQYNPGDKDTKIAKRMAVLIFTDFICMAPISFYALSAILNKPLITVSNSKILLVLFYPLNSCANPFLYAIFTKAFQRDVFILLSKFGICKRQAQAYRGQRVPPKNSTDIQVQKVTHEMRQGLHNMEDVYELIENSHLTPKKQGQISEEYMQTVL

The assay concerns the target Thyrotropin receptor (Homo sapiens) (UniProt P16473). Kind of assay: Antagonists of the Thyroid Stimulating Hormone Receptor: HTS campaign. The note with it: TSHR-expressing cells, TSH-stimulated cAMP HTRF, 2 h; at 11.5 µM; active compounds read low. The source says: The thyroid-stimulating hormone receptor (TSHR) is a member of the 7 trans-membrane-spanning receptor (7TMR) family of cell surface receptors. TSHR-mediated hyperthyroidism is important in thyroid pathology. The development of small molecule antagonists of TSHR may lead to therapeutic approaches for TSHR-mediated hyperthyroidism caused by constitutively activating mutations or stimulating auto-antibodies associated with Graves' disease. Graves' disease is the leading cause of hyperthyroidism and is caused by autoantibodies that stimulate TSHR (TsAbs) causing thyroid growth and unregulated overproduction of thyroid hormones and existing treatments have liabilities (agranulocytosis). In addition, TSHRs are known to be expressed in multiple extrathyroidal tissues including bone, brain, kidney, testis, fat and cells of the immune system but the role of the TSHR in these tissues is not clear. Therefore, TSHR antagonists/inverse agonists could be used as probes of extrathyroidal TSHR function. Finally, TSHR inverse agonists, which are a subclass of antagonists that inhibit agonist-independent (or basal or constitutive) TSHR signaling, could be used to inhibit TSH-independent signaling in patients with recurrent or metastatic thyroid cancer who are receiving thyroid hormone to suppress TSH. In collaboration between scientist from the NCGC and the NIDDK, a miniaturized HTRF high-throughput screen was developed. It's a cell based assay, where an anti cAMP antibody contains a fluorescent cryptate tag (excitation 337 nm; emission 620 nm) and the acceptor is cAMP-d2 (excitation 620 nm; emission 665 nm). When antibody and cAMP-d2 interact and are excited by a 337 nm light, a FRET occurs resulting in emission at 665 nm. The assay is competition between cAMP-d2 and cAMP (from the cell lysate). The homogeneous protocol allows for one step dispense after stimulation that is automation friendly. NIH Chemical Genomics Center [NCGC] NIH Molecular Libraries Probe Centers Network [MLPCN] MLPCN Grant: MH090855-01 Assay Submitter (PI): Marvin Gerhengorn
1. 3ul of 200 TSHR freshly harvested cells/well are dispensed into a 1536 TC-treated white solid bottom plate. 2. Through pintool addition, 23nl of compounds and control in 100% DMSO are added to the plate. 3. Then 1ul of EC80 TSH (4nM final) is added to the plate. 4. Assay is incubated at 37 deg C for 2 hours. 5. 2ul of cAMP antibody diluted 1:20 in lysis buffer is added. 6. Immediately following, 2ul of d2 diluted 1:20 in HBSS is added seperately. 7. The assay is incubated for 30 minutes at ambient room temperature. 8. The result is obtained by using a ViewLux read-out with HTRF settings.
Take `C[C@H]1OP(=O)(Oc2ccccc2)C[C@@H]2O[C@@H]21` (some centres not stated): the activity change, negative = inhibition was inactive: -1.47%. As for `C[C@@H]1C=CCP(=O)(Oc2ccccc2)O1` (some centres not stated), the figure is inactive: -6.9%. On to `Cc1ccccc1CN(C)C(=O)COC(=O)C(O)(c1ccccc1)c1ccccc1`, for which the activity change, negative = inhibition was inactive: -9.42%.

On to `CC(=O)c1ccc(N2CC2c2ccncc2)cc1` (configuration not stated), for which the activity change, negative = inhibition is inactive: -0.614%. Take `CC(=O)Nc1ccc(Oc2c([N+](=O)[O-])cc([N+](=O)[O-])cc2[N+](=O)[O-])cc1`: the activity change, negative = inhibition is inactive: -3.81%.

Take `CC(=O)Nc1ccc([As](=O)(O)O)c(O)c1`: the activity change, negative = inhibition is inactive: 4.77%.

In the case of `O=P1(Nc2nc3ccc(Cl)cc3s2)COc2ccccc2O1` (configuration not stated), the activity change, negative = inhibition is inactive: -0.217%. As for `CC(C)(C)C(=O)NC(Sc1ccccc1)C(Cl)(Cl)Cl` (configuration not stated), the figure is inactive: -0.188%; as for `CCC(=O)N1C2C3N(C(=O)CC)C1C1N(C(=O)CC)C(C(N1C(=O)CC)N3C(=O)CC)N2C(=O)CC`, inactive: -9.18%.

As to `O=C(OC1CN2CCC1CC2)c1ccccc1` (configuration not stated), the activity change, negative = inhibition is inactive: 11.7%. As for `Cc1ccc(OP(=O)(Nc2ccccn2)Oc2ccc(C)cc2)cc1`, the figure is inactive: -9.54%; as for `CC(=O)NC(SC(=S)N(CC(C)C)CC(C)C)C(Cl)(Cl)Cl` (configuration not stated), inactive: 5.55%.

On to `COC(=O)c1cc2c(s1)N=C(c1ccccc1)N(C)P2(=O)N1CCOCC1` (configuration not stated), for which the activity change, negative = inhibition was inactive: 2.99%.

Consider `CN(C)C(=O)Oc1noc2ccccc12`, for which the activity change, negative = inhibition was inactive: 2.15%. As for `CC(NC(=O)COC(=O)C(O)(c1ccccc1)c1ccccc1)c1ccccc1` (configuration not stated), the figure is inactive: -8.21%; as for `Cc1ccccc1OP(=O)(Nc1ccccn1)Oc1ccccc1C`, inactive: -3.35%; as for `CCOC(=O)NC(Sc1ccccc1)C(Cl)(Cl)Cl` (configuration not stated), inactive: -7.21%.

Turning to `Cc1ccc(NP(=O)(Oc2cccc(C)c2)Oc2cccc(C)c2)nc1`, the activity change, negative = inhibition was inactive: 3.38%. Under `c1ccc(-c2nn[nH]n2)c(-c2nn[nH]n2)c1` stands inactive: 38%; under `O=C(NC1CCS(=O)(=O)C1)NP(=S)(Oc1ccccc1)Oc1ccccc1` (configuration not stated), inactive: -2.97%; under `CCNC(=S)/N=C(\N)N[N+](=O)[O-]`, inactive: 13%. Under `O=[As](O)(c1ccccc1)c1ccc(O)cc1` stands inactive: 7.58%; under `O=[N+]([O-])c1ncn(CCn2cnc([N+](=O)[O-])n2)n1`, inactive: -3.41%. Consider `CC(=O)NC(SC(=S)N(C)C)C(Cl)(Cl)Cl` (configuration not stated), for which the activity change, negative = inhibition was inactive: -0.256%. As for `O=[N+]([O-])c1ccc(O)c(/C=N/Nc2ccc([N+](=O)[O-])cc2[N+](=O)[O-])c1`, the activity change, negative = inhibition is active: -73.4%. Under `O=C(OC1CN2CCC1CC2)c1cccc(Cl)c1` (configuration not stated) stands inactive: 1.34%; under `C(Cc1nn[nH]n1)Cc1nn[nH]n1`, inactive: 23.4%.

These data come from PubChem BioAssay AID504810 (National Center for Advancing Translational Sciences (NCATS), 2011).
